Earlier results, collected in EP1366765A1, “Use of matrix metalloproteinase inhibitors for treating neurological disorders and promoting wound healing” (priority 1996, dated 1998).

Biological target: T1, MMP-1 (Homo sapiens, UniProt P03956)
T1 sequence (P03956 100-469): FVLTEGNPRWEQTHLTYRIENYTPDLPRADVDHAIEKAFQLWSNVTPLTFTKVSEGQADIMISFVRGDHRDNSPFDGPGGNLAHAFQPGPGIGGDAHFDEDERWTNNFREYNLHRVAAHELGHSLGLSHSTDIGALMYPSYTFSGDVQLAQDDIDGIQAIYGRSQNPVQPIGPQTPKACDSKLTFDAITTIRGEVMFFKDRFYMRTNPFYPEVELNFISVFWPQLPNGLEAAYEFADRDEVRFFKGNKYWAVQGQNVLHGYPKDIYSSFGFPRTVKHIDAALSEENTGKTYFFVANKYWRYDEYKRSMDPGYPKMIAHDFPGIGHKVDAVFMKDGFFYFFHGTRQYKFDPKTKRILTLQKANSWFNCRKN
Conditions: IA = inactive; cited from earlier work

In the case of `COc1ccc(S(=O)(=O)N(Cc2cccnc2)[C@@H](C(=O)NO)C(C)C)cc1` [Compound 40], the IC50 is given as 380 nM.
